Biological target: T1, Rat NPY Y2 receptor (clone) (rat), Q9ERC0
T1 chain: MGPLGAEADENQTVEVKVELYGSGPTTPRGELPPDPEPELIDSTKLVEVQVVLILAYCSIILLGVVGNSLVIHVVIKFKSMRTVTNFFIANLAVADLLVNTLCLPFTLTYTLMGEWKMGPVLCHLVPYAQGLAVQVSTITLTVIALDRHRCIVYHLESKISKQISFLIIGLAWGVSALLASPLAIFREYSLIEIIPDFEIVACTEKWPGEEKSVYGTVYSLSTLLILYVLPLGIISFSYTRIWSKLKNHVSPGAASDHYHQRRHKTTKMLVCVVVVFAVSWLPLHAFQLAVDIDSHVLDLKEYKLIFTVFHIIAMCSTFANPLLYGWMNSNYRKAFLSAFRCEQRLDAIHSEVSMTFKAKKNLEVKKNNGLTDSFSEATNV
Experiment: competition with [125I]PYY, rat Y2 clone
Conditions: remark: other sources report otherwise

IC50: 84 nM
Binder: HYINLITRQRY (peptide, UniProt P01303 54-64, looked up) [rat/human (26-36)NPY, P01303 54-64]

— patent US20030022283A1
